In this test the target is Steryl-sulfatase (Homo sapiens, UniProt P08842). The test can be described thus: Inhibition of STS in human JEG-3 cells assessed as inhibition of estrone E1 formation using [3H]estrone sulfate as substrate at 50 to 100 uM incubated for 20 hrs in presence of E1S by scintillation spectrometry. The test is classed as cell-based. The conditions noted are these: dose 50-100 µM.

Chains of the proteins cited; added tags and fusions are not shown. Lines headed by an entry give the natural chain unless they say otherwise; changes in a name come on top.
UniProt P08842: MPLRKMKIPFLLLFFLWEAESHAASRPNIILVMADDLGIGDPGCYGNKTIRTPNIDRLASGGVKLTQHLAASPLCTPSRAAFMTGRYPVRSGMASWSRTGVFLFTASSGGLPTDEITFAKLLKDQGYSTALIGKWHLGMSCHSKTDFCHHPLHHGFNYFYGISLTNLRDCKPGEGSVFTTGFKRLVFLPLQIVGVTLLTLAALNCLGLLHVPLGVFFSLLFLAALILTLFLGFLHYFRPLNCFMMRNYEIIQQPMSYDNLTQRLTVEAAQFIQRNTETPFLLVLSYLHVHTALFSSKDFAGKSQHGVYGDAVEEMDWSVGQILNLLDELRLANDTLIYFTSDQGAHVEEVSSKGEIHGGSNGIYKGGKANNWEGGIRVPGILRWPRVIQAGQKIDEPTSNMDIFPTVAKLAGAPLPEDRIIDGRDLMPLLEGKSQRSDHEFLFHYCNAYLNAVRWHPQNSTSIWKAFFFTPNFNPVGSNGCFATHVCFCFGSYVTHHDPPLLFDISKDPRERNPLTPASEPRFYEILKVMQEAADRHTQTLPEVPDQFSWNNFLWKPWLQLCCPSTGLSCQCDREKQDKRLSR

Inhibition data for one molecule are collected here from ChEMBL document CHEMBL5335823, “Synthesis, biological evaluation, and stability studies of raloxifene mono- and bis-sulfamates as dual-targeting agents” (Bioorg Med Chem, 2024).

As usually defined, the inhibition is how much of the control response was suppressed.

Molecules are shown by their SMILES.

`O=C(c1ccc(OCCN2CCCCC2)cc1)c1c(-c2ccc(O)cc2)sc2cc(O)ccc12`: the inhibition came out at 20%.
